Amino acid sequences for entries named in this document (tags omitted). A change or cut given only in a name is not applied to a line headed by its entry.
UniProt P52333: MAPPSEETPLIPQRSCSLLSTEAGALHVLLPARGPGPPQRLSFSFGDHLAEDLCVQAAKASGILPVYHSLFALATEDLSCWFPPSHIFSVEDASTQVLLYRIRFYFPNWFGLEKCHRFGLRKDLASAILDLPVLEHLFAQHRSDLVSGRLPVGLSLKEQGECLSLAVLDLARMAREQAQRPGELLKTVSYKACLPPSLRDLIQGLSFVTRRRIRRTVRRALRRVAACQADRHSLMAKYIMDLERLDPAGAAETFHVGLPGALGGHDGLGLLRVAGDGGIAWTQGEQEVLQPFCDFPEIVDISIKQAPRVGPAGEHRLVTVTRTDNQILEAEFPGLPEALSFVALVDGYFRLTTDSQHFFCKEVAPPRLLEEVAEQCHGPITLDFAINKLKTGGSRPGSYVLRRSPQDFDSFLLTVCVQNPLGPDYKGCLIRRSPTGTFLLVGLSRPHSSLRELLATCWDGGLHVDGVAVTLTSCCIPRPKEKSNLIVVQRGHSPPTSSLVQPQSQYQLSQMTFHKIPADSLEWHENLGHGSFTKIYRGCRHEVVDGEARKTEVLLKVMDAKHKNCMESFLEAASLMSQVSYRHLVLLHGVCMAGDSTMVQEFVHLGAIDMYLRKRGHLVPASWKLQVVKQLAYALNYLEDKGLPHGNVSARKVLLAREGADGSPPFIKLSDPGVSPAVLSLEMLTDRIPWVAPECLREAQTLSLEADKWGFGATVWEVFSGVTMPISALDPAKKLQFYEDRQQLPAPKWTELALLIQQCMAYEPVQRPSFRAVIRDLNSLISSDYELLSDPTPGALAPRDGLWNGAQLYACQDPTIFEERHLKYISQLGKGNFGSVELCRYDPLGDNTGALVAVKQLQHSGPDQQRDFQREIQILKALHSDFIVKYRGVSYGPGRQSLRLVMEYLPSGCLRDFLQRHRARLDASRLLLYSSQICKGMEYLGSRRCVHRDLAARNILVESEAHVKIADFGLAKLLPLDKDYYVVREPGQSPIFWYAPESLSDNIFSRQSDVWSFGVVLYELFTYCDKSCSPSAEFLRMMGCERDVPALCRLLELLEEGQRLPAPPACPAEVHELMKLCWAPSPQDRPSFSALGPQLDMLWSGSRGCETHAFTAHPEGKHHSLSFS
UniProt P29597: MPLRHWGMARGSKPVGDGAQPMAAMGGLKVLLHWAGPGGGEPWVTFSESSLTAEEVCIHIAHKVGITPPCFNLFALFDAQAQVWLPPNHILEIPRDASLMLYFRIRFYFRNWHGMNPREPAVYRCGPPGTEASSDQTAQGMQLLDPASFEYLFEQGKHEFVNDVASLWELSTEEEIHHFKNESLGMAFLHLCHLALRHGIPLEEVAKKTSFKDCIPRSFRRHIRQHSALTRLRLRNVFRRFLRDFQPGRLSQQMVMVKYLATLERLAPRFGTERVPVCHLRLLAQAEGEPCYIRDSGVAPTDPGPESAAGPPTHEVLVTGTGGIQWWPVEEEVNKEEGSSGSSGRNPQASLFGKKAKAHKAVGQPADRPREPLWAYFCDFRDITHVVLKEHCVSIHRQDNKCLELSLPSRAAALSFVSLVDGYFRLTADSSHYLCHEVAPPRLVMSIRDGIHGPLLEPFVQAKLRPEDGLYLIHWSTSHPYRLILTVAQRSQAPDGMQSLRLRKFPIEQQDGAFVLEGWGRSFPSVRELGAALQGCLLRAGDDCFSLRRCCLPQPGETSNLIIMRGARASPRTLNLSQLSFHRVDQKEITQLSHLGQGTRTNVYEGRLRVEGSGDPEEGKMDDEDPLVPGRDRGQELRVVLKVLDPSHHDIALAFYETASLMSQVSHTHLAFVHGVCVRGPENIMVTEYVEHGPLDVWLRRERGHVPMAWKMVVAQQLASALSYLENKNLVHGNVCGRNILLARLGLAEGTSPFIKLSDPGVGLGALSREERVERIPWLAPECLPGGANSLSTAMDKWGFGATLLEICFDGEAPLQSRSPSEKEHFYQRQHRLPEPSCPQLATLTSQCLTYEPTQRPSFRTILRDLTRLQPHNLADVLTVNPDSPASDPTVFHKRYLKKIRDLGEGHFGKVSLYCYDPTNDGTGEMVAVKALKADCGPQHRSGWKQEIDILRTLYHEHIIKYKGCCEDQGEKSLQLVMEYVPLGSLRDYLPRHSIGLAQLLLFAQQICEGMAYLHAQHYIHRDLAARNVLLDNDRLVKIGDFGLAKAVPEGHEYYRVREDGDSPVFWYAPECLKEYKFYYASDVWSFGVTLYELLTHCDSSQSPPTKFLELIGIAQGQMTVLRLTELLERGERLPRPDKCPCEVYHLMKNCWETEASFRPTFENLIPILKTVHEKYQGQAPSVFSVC

In patent US9216999B2, “Substituted pyrrolo[2,3-h][1,6]naphthyridines and compositions thereof as JAK inhibitors” (priority 2011, dated 2015):

How the values were obtained:
JAK1 = JAK1 (Homo sapiens (Human), UniProt P23458); test: JAK1 enzyme assay (Assay Example^b 1)
JAK3 = JAK3 (Homo sapiens (Human), UniProt P52333); test: JAK3 enzyme assay (Assay Example^b 1)
Tyk2 [1] = molecular target: T1, Tyk2 (Homo sapiens (Human), UniProt P29597); test: Tyk2 enzyme assay (Assay Example^b 1)
Tyk2 [2] = molecular target: T1, Tyk2; test: Enzyme assay (Assay Example^a 1), Tyk2; format: biochemical; conditions: ATP 100 μM; Table^a 154; read-out: IC50 (μM) TYK2
JAK2 = JAK2 (Homo sapiens (Human), UniProt O60674); test: JAK2 enzyme assay (Assay Example^b 1)
[3] = IC50 (μM) JAK3, Table^b 80, ATP 100 μM
[4] = IC50 (μM) JAK3, Table^b 78, ATP 100 μM
[5] = IC50 (μM) JAK1, Table^b 80, ATP 100 μM

Row | SMILES | IC50 (JAK3; [3]) [µM] | IC50 (JAK3; IC50 (μM) JAK3, ATP 100 μM) [µM] | other results
1 | C[C@@H]1CCN(Cc2ccccc2)C[C@@H]1n1cc(Br)c(=O)c2cnc3[nH]ccc3c21 (racemic) [compound 24] | 0.56 | – | IC50 (JAK1; IC50 (μM) JAK1): 0.025 µM
2 | C[C@@H]1CCN(CCc2ccc(F)cc2)C[C@@H]1n1ccc(=O)c2cnc3[nH]ccc3c21 (racemic) [compound 46] | 0.046 | – | –
3 | O=c1ccn(C2CCN(Cc3ccc(F)c(C(F)(F)F)c3)CC2)c2c1cnc1[nH]ccc12 [compound 78] | > 1 | – | –
4 | CSCn1c(=O)c2cnc3[nH]ccc3c2n(C2CCCCC2)c1=O [compound 147] | – | > 1 | –
5 | COCCn1c(=O)c2cnc3[nH]ccc3c2n(C2CCCCC2)c1=O [compound 145] | – | > 1 | –
6 | N#CCCCCN1CCC(n2c(=O)[nH]c(=O)c3cnc4[nH]ccc4c32)CC1 [compound 96] | – | > 1 | –
7 | N#CCN1CCC(n2c(=O)[nH]c(=O)c3cnc4[nH]ccc4c32)CC1 [compound 94] | – | > 1 | –
8 | CC(C)CS(=O)(=O)N1CC[C@@H](C)[C@@H](n2ccc(=O)c3cnc4[nH]ccc4c32)C1 (racemic) [compound 10] | – | – | IC50 (JAK3; [4]): 0.034 µM
9 | O=C(CC(F)(F)F)N(CC(F)(F)F)C[C@H]1CC[C@H](n2c(=O)[nH]c(=O)c3cnc4[nH]ccc4c32)CC1 [compound 155] | – | 0.2 | –
10 | C[C@@H]1CCN(C(=O)Nc2nncs2)C[C@@H]1n1ccc(=O)c2cnc3[nH]ccc3c21 (racemic) [compound 36] | 0.0038 | – | –
11 | c1cc2c3c(cnc2[nH]1)COCN3C1CCCCC1 [compound 2] | – | – | IC50 (Tyk2 [1]; IC50 (μM) TYK2, Table^b 79, ATP 100 μM): 3.1 µM; IC50 (JAK3; [4]): 1.2 µM
12 | O=c1c2cnc3[nH]ccc3c2n(C2CCCCC2)c(=O)n1CCCO [compound 141] | – | 0.8 | –
13 | O=C1NCc2cnc3[nH]ccc3c2N1C1CCN(Cc2ccccc2)CC1 [compound 59] | – | – | IC50 (JAK1; [5]): 0.042 µM
14 | COCn1c(=O)c2cnc3[nH]ccc3c2n(C2CCCCC2)c1=O [compound 143] | – | > 1 | –
15 | O=c1[nH]c(=O)n(C2CCN(CCC3CCSCC3)CC2)c2c1cnc1[nH]ccc12 [compound 90] | – | > 1 | –
16 | O=c1ccn(C2CCN(Cc3ccc4c(c3)OC(F)(F)O4)CC2)c2c1cnc1[nH]ccc12 [compound 84] | 0.13 | – | IC50 (JAK1; [5]): 0.00075 µM

Row | SMILES | IC50 (JAK3; [3]) [µM] | IC50 (JAK3; IC50 (μM) JAK3, ATP 100 μM) [µM] | other results
17 | C[C@@H]1CCN(C2CCCC2)C[C@@H]1n1ccc(=O)c2cnc3[nH]ccc3c21 (racemic) [compound 47] | 0.11 | – | IC50 (JAK1; [5]): 0.11 µM
18 | C[C@@H]1CCN(Cc2ccccc2C#N)C[C@@H]1n1ccc(=O)c2cnc3[nH]ccc3c21 (racemic) [compound 43] | 0.15 | – | –
19 | C[C@@H]1CCN(C(=O)Nc2cccc(C(F)(F)F)c2)C[C@@H]1n1ccc(=O)c2cnc3[nH]ccc3c21 (racemic) [compound 29] | 0.2 | – | –
20 | O=c1c2cnc3[nH]ccc3c2n(C2CCCCC2)c(=O)n1CCO [compound 140] | – | 0.78 | –
21 | O=c1c2cnc3[nH]ccc3c2n(C2CCCCC2)c(=O)n1CC1CCCO1 (racemic) [compound 150] | – | 0.64 | –
22 | O=c1ccn(C2CCN(Cc3cnc(Cl)s3)CC2)c2c1cnc1[nH]ccc12 [compound 77] | 1 | – | –
23 | ClC[C@H]1CC[C@H](c2nnn3cnc4[nH]ccc4c23)CC1 [compound 75] | – | – | IC50 (Tyk2 [2]): 0.0012 µM
24 | C[C@@H]1CCN(C(=O)Cc2ccc(F)cc2)C[C@@H]1n1ccc(=O)c2cnc3[nH]ccc3c21 (racemic) [compound 32] | 0.55 | – | IC50 (JAK1; [5]): 0.081 µM; IC50 (JAK2; IC50 (μM) JAK2, Table^b 80, ATP 100 μM): 0.77 µM
25 | Cc1cc(NC(=O)N2CC[C@@H](C)[C@@H](n3ccc(=O)c4cnc5[nH]ccc5c43)C2)sn1 (racemic) [compound 37] | 0.0028 | – | –
26 | O=S1(=O)C=CN(C2CCCCC2)c2c1cnc1[nH]ccc21 [compound 12] | – | – | IC50 (JAK3; [4]): 1.3 µM
27 | O=c1[nH]c(=O)n([C@H]2CC[C@H](CNCC(F)(F)F)CC2)c2c1cnc1[nH]ccc12 [compound 102] | – | 0.32 | –
28 | C[C@@H]1CCN(S(=O)(=O)c2cccc(C#N)c2)C[C@@H]1n1ccc(=O)c2cnc3[nH]ccc3c21 (racemic) [compound 26] | 0.1 | – | –
29 | c1cc2c(ncn3nnc(C4CCN(Cc5csnn5)CC4)c23)[nH]1 [compound 152] | – | – | IC50 (Tyk2 [2]): 0.11 µM
30 | CCC(C)CN1CCC(n2c(=O)[nH]c(=O)c3cnc4[nH]ccc4c32)CC1 (racemic) [compound 92] | – | – | IC50 (Tyk2 [1]; IC50 (μM) TYK2, ATP 100 μM): > 1 µM; IC50 (JAK2; IC50 (μM) JAK2, ATP 100 μM): > 1 µM
31 | O=c1[nH]c(=O)n([C@H]2CC[C@H](CN3CCS(=O)(=O)CC3)CC2)c2c1cnc1[nH]ccc12 [compound 114] | – | 0.52 | –
32 | O=c1[nH]c(=O)n([C@H]2CC[C@H](CN3CCC(C(F)(F)F)CC3)CC2)c2c1cnc1[nH]ccc12 [compound 128] | – | > 1 | –
